# Yeast mating assay B: variants of the scFv Ab-14

The measurements come from Li et al. 2023 (doi:10.1038/s41467-023-39022-2) through the FLAb antibody collection.

All variants were tested on one target, the spike HR2 peptide PDVDLGDISGINAS (SARS-CoV-2).

Ab-14 is the parent antibody, in scFv form: VH, then the linker GGGGSGGGGSGGGGS, then VL. The light chain is unchanged in all variants.
VH: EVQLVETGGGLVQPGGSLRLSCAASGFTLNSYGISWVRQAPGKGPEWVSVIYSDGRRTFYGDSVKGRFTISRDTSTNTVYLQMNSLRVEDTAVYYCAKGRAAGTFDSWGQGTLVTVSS
VL: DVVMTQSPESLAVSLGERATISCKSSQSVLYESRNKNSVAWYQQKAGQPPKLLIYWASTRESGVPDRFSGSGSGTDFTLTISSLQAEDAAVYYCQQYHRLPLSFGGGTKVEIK

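The starting antibody came from a phage panning campaign against this peptide. This is the validation round: designs drawn from the data on random variants, tested in the same kind of assay. Several design methods are mixed in this list. The scFvs were displayed on barcoded MATa yeast, the peptide on MATalpha yeast. Binding brings cells together so that they mate, and sequencing counts the barcode pairs among the diploids. Read counts were normalised to the haploid input and turned into Kd by a linear fit to BCL2-family pairs of known affinity, for each replicate. Mating was done six times.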

Variants are written as CDR1, CDR2 and CDR3 of the heavy chain (limits as in the source). Parent: GFTLNSYGIS, VIYSDGRRTFYGDSVK, GRAAGTFDS. Affinities are written as log10 Kd with Kd in nM; a lower number is a better binder. A mean of the replicates is given; it leaves out those without a signal. "no signal" marks a missing value. The strain was present, yet no cells mated with the target were sequenced in any replicate, which points to weak or no binding. The authors averaged sequences with at least three values out of six and counted those with two or fewer as poor binders.

"log10 Kd (nM), mean",seen in,CDR-H1,CDR-H2,CDR-H3
-0.27,6 of 6,GFTLNEYGIS,VIYADGRRTFYGDSVK,GRAAGTFDM
0.50,6 of 6,GFDLNDYGIS,VIYADGRRTAYIDSVK,GEVAGTFDQ
no signal,0 of 6,GFTLNDYGIS,VIYSDGRRTYYGDSVK,GRAAGTFVS
no signal,0 of 6,GFTLNSYGIS,VIYSDGRRTFYGPSVK,RRAAGTFDS
-0.37,6 of 6,GFDLEEYGIS,VIYADGMRTAYADSVK,GEVAGTFDL
-0.32,6 of 6,GFDLNEYGIS,VIYADGKRTFYDDSVK,GQLAGTFDL
-0.46,6 of 6,GFTLNEYGIS,VIYSDGRRTFYADSVK,GREAGTFDV
-0.25,6 of 6,GFDLNEYGIS,VIYADGRRTFYSDSVK,GEIAGTFDN
no signal,0 of 6,GFTLNSYGIS,VIYSDGRRTFYGDSVK,GRRAVTFDS
-0.29,6 of 6,GFDLDEYGIS,VIYADGQRTAYANSVK,GNVAGTFDV
no signal,0 of 6,GFELNSYGIS,VIYSDGRRTFYGMTWK,FLAAHWFNS
no signal,0 of 6,GKKLDEYGIS,VIYADGMRTMYTDSVK,GQLDDGMQL
no signal,0 of 6,GFDLEEYGIS,VIYADGQREAYTENVK,GNSMGMDML
0.31,6 of 6,GFHLNSYGIS,VIYSDGRRTFYADSVK,GWTAGTFDS
0.28,4 of 6,GFELNEYGIS,VIYSDGRRTFYGDQVK,GRTAGTFDS
0.70,6 of 6,GFVLNQYGIS,VIYADGRRTFYGDSVK,GRAAGTFDS
no signal,0 of 6,GFNLDEEGIS,VIYADGIRTAYQDSVK,GQNVATFNV
no signal,0 of 6,GFTLNSYGIS,VIYSDGRRTFYGDSVK,GRAAGTIES
no signal,0 of 6,GKGLDEYGIS,VIYADGVRKAYAQSVK,GQVGFFIRV
-0.19,6 of 6,GFDLNEYGIS,VIYADGVRTAYADSVK,GNNAGTFDT
-0.52,6 of 6,GFDLNEYGIS,VIYADGKRTAYADKVK,GGNAGTFDV
1.55,6 of 6,GFNLNSYGIS,VIYSDGRRTFYQDRVK,GQVAGTFDS
1.44,6 of 6,GFTLMDYGIS,VIYSDGRRTFYGDSVK,GRAAGTFDS
-0.33,6 of 6,GFDLNEYGIS,VIYADGMRTAYVDDVK,GNQAGTFDI
-0.63,6 of 6,GFDLNEYGIS,VIYADGMRTAYSDSVK,GETAGTFDV
0.66,6 of 6,GFTLNEYGIS,VIYSDGIRTFYGDSVK,GRMAGTFDS
1.15,6 of 6,GFTLNDYGIS,VIYSDGRRTWYIDSVK,GRTAGTFDS
no signal,0 of 6,GFTLNDYCIS,VIYSDGRRTFYGDSVK,ARAALTFIS
no signal,0 of 6,GFTLNSYGIS,VIYSDGRRTFYSDSVK,GRAGGVFDS
0.11,6 of 6,GFDLNEYGIS,VIYADGRRTAYTDSVK,GANAGTFDV
1.37,6 of 6,GNTLNDYGIS,VIYSDGRRTAYGDSVK,GRLAGTFDS
1.12,4 of 6,GFNLNSYGIS,VIYSDGRRTFYLDSVK,GRTAGTFDS
2.31,5 of 6,GFKLNSYGIS,VIYSDGRRTFYKDSVK,GKTAGTFDS
0.26,6 of 6,GFSLNSYGIS,VIYSDGRRTFYGDSVK,GEAAGTFDQ
1.47,6 of 6,GFCLNDYGIS,VIYSDGRRTFYADSVK,GRAAGTFDT
-0.19,6 of 6,GFDLDEYGIS,VIYADGKRTAYSDSVK,GENAGTFDL
no signal,0 of 6,GFTLNSYGIS,VIYSDGRRAFYGDSVK,GKAALTFKS
0.88,5 of 6,GFTLNDYGIS,VIYSDGRRTWYGDSVK,GRQAGTFDS
0.96,2 of 6,GKDMNDYGIS,VIYADGSRAAYGDNFK,GELAGTFDM
0.99,1 of 6,GFSLNSYGIS,VIYSDGRRTFYQDSVK,GRSAGTFDS
2.38,1 of 6,GFTLNSYGIS,VIYSDGRRTFYGDSVK,GRAAGVFDV
1.29,3 of 6,GKTLNSYGIS,VIYSDGRRTFYGDDVK,GQTAGTFDV
0.12,6 of 6,GFDLNEYGIS,VIYADGRRTFYADSVK,GNNAGTFID
1.18,6 of 6,GFDLNSYGIS,VIYSDGRRTFYDDNVK,GKAAGTFDS
no signal,0 of 6,GDSLNEYGIS,VIYADGRRSVYTDKVK,GHAGGTFMS
0.91,6 of 6,KFDLNEYGIS,VIYSDGRRTFYGDSVK,GRTAGTFDS
no signal,0 of 6,GQSLEEYGIS,VIYADGQRNAAADEVK,GENAGTFDI
no signal,0 of 6,GFTLNSYGIS,VIYSDGRRTFYGDSVK,IRDMGTFDS
0.55,1 of 6,GFSLDEYGIS,VIYADGIRQHYSDQVK,GVKNGNVIL
-0.14,6 of 6,GFDLNEYGIS,VIYADGMRTFYSDSVK,GEIAGTFDS
no signal,0 of 6,GFTLNDYGIS,VIYSDGRRTFYGDSVK,GKEAGTFIS
0.38,6 of 6,GFSLNSYGIS,VIYSDGRRTFYADSVK,GRVAGTFDT
-0.63,6 of 6,GFDLNEYGIS,VIYADGRRTFYTDSVK,GAIAGTFDQ
0.71,6 of 6,GFTLNSYGIS,VIYSDGKRTFYSDSVK,GKAGGTFDS
0.66,6 of 6,GFWLNDYGIS,VIYSDGRRTFYIDSVK,GRLAGTFDS
-0.08,6 of 6,GFDLEDYGIS,VIYADGMRTAYADSVK,GEAAGTFDL
no signal,0 of 6,GFTLNSYGIS,VIYSDGLRTFYMDSVK,GYAASTFDV
0.82,6 of 6,GFPLNEYGIS,VIYSDGRRTFYGDSVK,GRNAGTFDS
-0.06,6 of 6,GFSLNEYGIS,VIYSDGRRTFYGDSVK,GMAAGTFDR
1.28,4 of 6,GFTLNSYGIS,VIYADGRRTFYGDSVK,GRVAGTFKI
0.52,6 of 6,GFSLNEYGIS,VIYSDGRRTFYGDSVK,GTAAGTFDR
1.76,6 of 6,GFTLNSYGIS,VIYSDGRRTFYADRVK,GQTAGTFDK
no signal,0 of 6,GETLQSYGIS,VIYSDGMRTFYGDSVK,GRIAGDFDD
no signal,0 of 6,GFSLNEYGIS,VIYSDGRRTFYGDSVK,GKAAGTFDC
1.05,5 of 6,GFTLDSYGIS,VIYSDGRRTFYGDSVK,GRTAGTFDQ
-0.57,6 of 6,GFDLNEYGIS,VIYADGVRTAYTDSVK,GGNAGTFDV
1.63,6 of 6,GFWLNEYGIS,VIYSDGRRTFYGDSVK,GQAAGTFDV
no signal,0 of 6,GFHLNDYGIS,VIYSDGRRTQYIDPVK,GRAAGTFDS
-0.76,6 of 6,GFDLNEYGIS,VIYADGMRTAYADNVK,GTVAGTFDI
0.69,5 of 6,GFTLESYGIS,VIYSDGRRTFYVDSVK,GQGAGTFDS
0.21,6 of 6,GFDLNSYGIS,VIYSDGRRTFYADSVK,GTEAGTFDS
no signal,0 of 6,GADIQEYGIS,VIYADGIRTAYANNVK,GEYGSQFDE
no signal,0 of 6,GNDIEEYGIS,VIYADGQRVNAASQFK,GKQAGTFNL
0.71,6 of 6,GFTLNSYGIS,VIYSDGRRTFYSDSVK,GEAAGTFDV
-0.72,6 of 6,GFDLDEYGIS,VIYADGMRTAYADNVK,GNQAGTFDI
-0.39,6 of 6,GFDLNEYGIS,VIYADGRRTFYADSVK,GKEAGTFNV

Top 12 of the variants detected in all replicates, tightest first:

CDR-H1,CDR-H2,CDR-H3,"log10 Kd (nM), mean",seen in
GFDLNEYGIS,VIYADGMRTAYADNVK,GTVAGTFDI,-0.76,6 of 6
GFDLDEYGIS,VIYADGMRTAYADNVK,GNQAGTFDI,-0.72,6 of 6
GFDLNEYGIS,VIYADGMRTAYSDSVK,GETAGTFDV,-0.63,6 of 6
GFDLNEYGIS,VIYADGRRTFYTDSVK,GAIAGTFDQ,-0.63,6 of 6
GFDLNEYGIS,VIYADGVRTAYTDSVK,GGNAGTFDV,-0.57,6 of 6
GFDLNEYGIS,VIYADGKRTAYADKVK,GGNAGTFDV,-0.52,6 of 6
GFTLNEYGIS,VIYSDGRRTFYADSVK,GREAGTFDV,-0.46,6 of 6
GFDLNEYGIS,VIYADGRRTFYADSVK,GKEAGTFNV,-0.39,6 of 6
GFDLEEYGIS,VIYADGMRTAYADSVK,GEVAGTFDL,-0.37,6 of 6
GFDLNEYGIS,VIYADGMRTAYVDDVK,GNQAGTFDI,-0.33,6 of 6
GFDLNEYGIS,VIYADGKRTFYDDSVK,GQLAGTFDL,-0.32,6 of 6
GFDLDEYGIS,VIYADGQRTAYANSVK,GNVAGTFDV,-0.29,6 of 6

A sequence measured in both rounds can read differently, since the two assays cover different ranges. The parent sequence was in this pool as ten entries: three were never detected, three once, and four in most replicates, with averages from 0.34 to 2.37. Background: pairings of all heavy chain designs with three empty control strains gave a value in 1% of cases (median 2.08, 5th percentile 0.84). Values in that range, when seen in few replicates, are hard to tell from nonspecific mating.